According to patent US20260315474A1 (BRISTOL-MYERS SQUIBB COMPANY, priority 2023, published 2026):
“Also recorded” adds a separate entry of the source.

Assays:
[1] = tested on: activated partial thromboplastin time (aPTT); test: Activated partial thromboplastin time (aPTT), AXIOMATIC-SSP; type: in vivo, human; settings: 25 mg QD to 200 mg BID
[2] = tested on: activated partial thromboplastin time (aPTT); test: aPTT after multiple oral doses in healthy subjects; type: in vivo, human
prothrombin time (PT) = test: Prothrombin time (PT); settings: single or multiple doses, human subjects

For `C[C@@H]1CCC[C@H](n2cnc(-c3cc(Cl)ccc3-n3cc(Cl)nn3)cc2=O)c2cc(ccn2)-c2c(cnn2C(F)F)NC1=O` [milvexian, (5R,9S)-9-(4-(5-chloro-2-(4-chloro-1H-1,2,3-triazol-1-yl)phenyl)-6-oxopyrimidin-1(6H)-yl)-2^1-(difluoromethyl)-5-methyl-2^1H-3-aza-1(4,2)-pyridina-2(5,4)-pyrazolacyclonaphan-4-one], the “dose-response of aPTT” value [1] was “dose-dependent increase in aPTT percent change from baseline; also recorded: Dose-dependent increases in aPTT”, the “effect on aPTT” value [2] was “dose- and concentration-dependent prolongation of aPTT” and the “effect on prothrombin time” value (prothrombin time (PT)) was “not impacted”.
